In PMC3877758 (2013) one finds K1/2 of eIF2B for [3H]GDP release from eIF2 prebound to eIF5 (coupled GDI–GDF–GEF assay; pair displaced: eIF2 and eIF5), K1/2 of eIF2B for GDP release from eIF2 prebound to eIF5 (coupled GDI–GDF–GEF assay), as told in the discussion and IC50 data, which are given here for one substance.

Chains of the proteins cited; added tags and fusions are not shown. Lines headed by an entry give the natural chain unless they say otherwise; changes in a name come on top.
UniProt P20459: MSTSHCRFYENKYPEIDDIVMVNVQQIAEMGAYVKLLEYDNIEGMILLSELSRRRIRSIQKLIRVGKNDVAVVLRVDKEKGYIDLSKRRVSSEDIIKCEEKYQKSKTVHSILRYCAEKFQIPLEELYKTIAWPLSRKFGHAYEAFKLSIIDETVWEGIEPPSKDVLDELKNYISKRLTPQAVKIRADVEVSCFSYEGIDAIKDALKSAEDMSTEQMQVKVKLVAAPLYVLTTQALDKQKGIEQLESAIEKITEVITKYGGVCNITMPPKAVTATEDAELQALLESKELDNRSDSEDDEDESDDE

The target of experiment [1] is eIF2 (yeast (Saccharomyces cerevisiae)) (UniProt P20459).
The target is the same in experiment [2]. This is another data set of the same source.
Experiment [3] has the same target. Kind of experiment: pull-down; GDF assay (competition): 1 µg eIF2 or eIF2αP and 1 µg GST-eIF5 bound to glutathione sepharose beads 2 h at 4°C, washed, then challenged 2 h at 4°C with increasing concentrations of Flag-eIF2B complexes, subunits or eIF5-Flag; 30 mM HEPES, 100 mM KCl, 100 µM GDP, 5 mM DTT, 1 mM NaF, 2.5 mM MgCl2, 0.05% Triton X-100; bound eIF2 by immunoblot; fit y = 1 − [x/(x + IC50)]. Background: A western blot detects proteins with antibodies after separation by electrophoresis.

Broadly, the IC50 is the concentration that gives 50% inhibition. For the substance “eIF2B complex (five subunits α, β, γ, δ, ɛ) (from UniProt P14741 1-305; P32502 1-381; P09032 1-578; P12754 1-651; P32501 1-712)”, the K1/2 of eIF2B for [3H]GDP release from eIF2 prebound to eIF5 (coupled GDI–GDF–GEF assay; pair displaced: eIF2 and eIF5) in experiment [1] is 46 nM. Also, in experiment [2], the K1/2 of eIF2B for GDP release from eIF2 prebound to eIF5 (coupled GDI–GDF–GEF assay), as told in the discussion is 47 nM. Also, in experiment [3], the concentration for half-maximal inhibition (IC50) came out at 15.1 nM.
